Results from ChEMBL document CHEMBL4373720, “Discovery of Conformationally Restricted Human Glutaminyl Cyclase Inhibitors as Potent Anti-Alzheimer's Agents by Structure-Based Design” (J Med Chem, 2019).

Protein sequences, listed by entry. Tags and fused reporters are not part of them. Residues count along the entry.
UniProt Q12809, whole entry: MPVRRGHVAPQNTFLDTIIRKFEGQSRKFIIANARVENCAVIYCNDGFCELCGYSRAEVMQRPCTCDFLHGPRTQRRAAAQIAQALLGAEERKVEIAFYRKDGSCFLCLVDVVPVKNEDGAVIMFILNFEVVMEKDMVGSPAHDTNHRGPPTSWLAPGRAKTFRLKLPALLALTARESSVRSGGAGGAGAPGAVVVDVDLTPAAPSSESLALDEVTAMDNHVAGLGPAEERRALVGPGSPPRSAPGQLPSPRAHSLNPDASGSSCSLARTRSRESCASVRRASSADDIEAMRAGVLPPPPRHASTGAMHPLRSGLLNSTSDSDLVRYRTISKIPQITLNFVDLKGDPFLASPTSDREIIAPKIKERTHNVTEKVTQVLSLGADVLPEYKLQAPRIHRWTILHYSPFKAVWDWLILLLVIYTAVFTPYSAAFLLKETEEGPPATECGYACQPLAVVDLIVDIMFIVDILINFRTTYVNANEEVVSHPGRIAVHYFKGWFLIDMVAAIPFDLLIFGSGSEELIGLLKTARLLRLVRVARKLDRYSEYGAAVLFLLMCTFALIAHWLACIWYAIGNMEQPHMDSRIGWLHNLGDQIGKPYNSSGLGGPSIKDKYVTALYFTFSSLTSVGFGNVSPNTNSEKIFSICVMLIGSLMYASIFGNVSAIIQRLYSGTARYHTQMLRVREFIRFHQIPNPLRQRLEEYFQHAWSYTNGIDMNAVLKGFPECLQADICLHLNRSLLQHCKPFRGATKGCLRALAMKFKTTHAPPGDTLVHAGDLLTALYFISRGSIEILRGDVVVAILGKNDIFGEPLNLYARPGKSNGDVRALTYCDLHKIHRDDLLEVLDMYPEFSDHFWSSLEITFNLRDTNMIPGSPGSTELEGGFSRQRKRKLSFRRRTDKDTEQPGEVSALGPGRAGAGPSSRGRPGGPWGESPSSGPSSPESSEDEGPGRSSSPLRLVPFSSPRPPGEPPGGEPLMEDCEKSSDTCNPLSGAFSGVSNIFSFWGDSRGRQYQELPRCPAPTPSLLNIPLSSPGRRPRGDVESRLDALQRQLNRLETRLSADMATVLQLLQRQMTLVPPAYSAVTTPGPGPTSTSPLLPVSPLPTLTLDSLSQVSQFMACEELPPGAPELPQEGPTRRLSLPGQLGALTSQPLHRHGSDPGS
UniProt Q9CYK2, 36-362 limits assumed: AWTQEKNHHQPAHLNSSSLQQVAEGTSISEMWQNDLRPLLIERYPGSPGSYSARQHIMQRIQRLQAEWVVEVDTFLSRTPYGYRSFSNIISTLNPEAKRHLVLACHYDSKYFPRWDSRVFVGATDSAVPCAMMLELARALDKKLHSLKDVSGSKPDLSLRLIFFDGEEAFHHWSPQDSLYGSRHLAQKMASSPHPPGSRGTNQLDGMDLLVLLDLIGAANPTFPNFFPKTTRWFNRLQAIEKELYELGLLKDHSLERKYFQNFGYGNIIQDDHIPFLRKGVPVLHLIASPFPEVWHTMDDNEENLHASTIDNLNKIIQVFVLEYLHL

What was measured:
[1] = test system: HT-22; test: Cytotoxicity against mouse HT22 cells assessed as cell viability at 10 uM measured after 18 hrs by MTT assay relative to control; format: cell-based; conditions: ht-22, 18 h
[2] = biological target: Voltage-gated inwardly rectifying potassium channel KCNH2 (Homo sapiens, UniProt Q12809); test: Displacement of tracer red from human ERG at 10 uM by fluorescence polarization assay relative to control
[3] = Stability in mouse liver microsomes assessed as parent compound remaining measured after 30 mins; format: ADME, Microsome; conditions: 0.5 h
[4] = test system: Mus musculus; test: Neuroprotection in human amyloid beta (3 to 40 residues)-induced ICR mouse model of Alzheimer's disease assessed as inhibition of human amyloid beta N3pE-40 level in brain at 25 mg/kg, ip measured after 24 hrs by sandwich ELISA relative to control; format: functional
[5] = Stability in human liver microsomes assessed as parent compound remaining measured after 30 mins; format: ADME, Microsome; conditions: 0.5 h
[6] = biological target: Glutaminyl-peptide cyclotransferase (Mus musculus, UniProt Q9CYK2); test: Inhibition of mouse glutaminyl cyclase
[7] = Toxicity in 5XFAD transgenic ICR mouse at 25 mg/kg, ip administered daily for 4 weeks; conditions: in vivo, 672 h
[8] = test system: Mus musculus; test: Antialzheimer activity in 5XFAD transgenic ICR mouse assessed as reduction in amyloid beta-40 level in brain at 25 mg/kg, ip administered daily for 4 weeks measured post-last dose by sandwich ELISA relative to control; parameters: scale not given: the % may be the effect or the level left
[9] = test system: Mus musculus; test: Antialzheimer activity in 5XFAD transgenic ICR mouse assessed as reduction in amyloid beta-42 level in brain at 25 mg/kg, ip administered daily for 4 weeks measured post-last dose by sandwich ELISA relative to control; parameters: scale not given: the % may be the effect or the level left
[10] = test system: Mus musculus; test: Antialzheimer activity in 5XFAD transgenic ICR mouse assessed as reduction in amyloid beta N3pE-40 level in brain at 25 mg/kg, ip administered daily for 4 weeks measured post-last dose by sandwich ELISA relative to control; parameters: scale not given: the % may be the effect or the level left
[11] = test system: Mus musculus; test: Antialzheimer activity in 5XFAD transgenic ICR mouse assessed as reduction in amyloid beta N3pE-42 level in brain at 25 mg/kg, ip administered daily for 4 weeks measured post-last dose by sandwich ELISA relative to control; parameters: scale not given: the % may be the effect or the level left

SMILES | Activity [1] [%] | inhibition (INH) [2] [%] | Stability [3] [%] | inhibition (INH) [4] [%] | Stability [5] [%] | IC50 [6] [nM] | Activity [7] | Activity [8] [%] | Activity [9] [%] | Activity [10] [%] | Activity [11] [%]
COc1ccc(N(C(=O)NCCCn2cncc2C)C2CCNCC2)cc1OC | 88.3 | 26.3 | – | – | – | – | – | – | – | – | –
COc1ccc(N(C(=O)NCCCn2cncc2C)C2CCN(Cc3ccccc3)CC2)cc1OC | 92.4 | 73.5 | – | – | – | – | – | – | – | – | –
COc1ccc(N(C(=O)NCCCn2cncc2C)C2CCN(C)CC2)cc1OC | 100 | 46.1 | 89 | 26.1 | 100 | 28.4 | Non-Toxic | 36.6 | 35.1 | 57.9 | 50.5

Only a part of the results on these compounds is given; other tests are left out.
